Test results from publication PMC7562719, “Discovery of a CNS penetrant small molecule SMN2 splicing modulator with improved tolerability for spinal muscular atrophy” (Scientific Reports, 2020).
Marks after values point to notes of the source that are not given here.

Test system: TK6 cells
Details: positive control 0.1 µg/mL (0.3 µM); 3 h -S9 mix; p < 0.01
Description: These articles have been recommended for use in the OECD test guideline (Test No. 487)[49]. For metabolic activation, pre-cultured TK6 cells with the culture medium were supplemented with Sprague–Dawley rat liver mix (S9 mix, IEDA TRADING CORPORATION, Japan) at 3.33 vol%. Then, compound was mixed with the cell suspension and treated under the following treatment conditions: • Short-term treatment for 3 h without S9 mix, followed by a 21-h culture (−S9 mix assay), • Short-term treatment for 3 h with S9 mix, followed by a 21-h culture (+S9 mix assay), or • Continuous treatment for 24 h without S9 mix (24-h assay). […] To perform scoring for compound and negative control groups, the number of cells in the suspensions was counted using a Coulter Counter (Z2; Beckman Coulter, Inc.). The positive control groups were not determined. […] The cell number per 1 mL at each culture was calculated by the following formula. […]
The population doubling (PD) and relative population doubling (RPD) at each concentration was calculated by the following formula. […]
RPD%=PD of the compound-treated group/PD of the negative control group×100 For the treated groups, the 3 consecutive concentrations were selected as follows. […] For all concentrations, 4000 mononuclear cells with cytoplasm were analyzed and the number of cells with micronucleus (micronuclei) was counted using a microscope (× 600). […]

Structure (SMILES): CO[C@@]12[C@H](COC(N)=O)C3=C(C(=O)C(C)=C(N)C3=O)N1C[C@@H]1N[C@@H]12 [MMC, Mitomycin, reference compound]
- Micronucleated cells (%): (2.95) ** %
